Screens (PubChem)
An excerpt weighted towards active compounds, which were near 1.1% of everything screened.
miR-21 FLuc = raises the signal of a miR-21 reporter | AID 2288 | 340,000 tested, under 10 active | Potency, µM (series often up to 38.3 µM), without a hit: at the highest dose reporter change, positive = more light | HeLa miR-21 FLuc reporter, luciferase, 48 h; active = well fitted rising curve with a large enough effect; inconclusive = small, poorly fitted or top-dose-only effect; inactive = no such curve, though single readings can be large or run the other way;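 further: % of control where 0% means no effect; miR-21 action dims this reporter so a rising signal means less miR-21 action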
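Luminescence from a firefly luciferase reporter carrying a miR-21 binding site downstream, stably expressed under a CMV promoter in HeLa cells that make miR-21 endogenously, reports miRNA modulation after 48 h compound exposure up to approximately 40uM final.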
p53 reactivation = re-activators of mutant p53 | Potency, µM (series often up to 92.2 µM), inactives show at the highest dose activity change, positive = activation, most hits filed as activators | H1299 p53-A138V BP100-luciferase reporter, luminescence, 24 h | AID 504706 | actives 0.063% (n = 320,000); note: potency is the fitted concentration of half-maximal effect; % of control where 0% means no effect; nearly all actives have a fitted effect of over 45% in size
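H1299 (p53-null), stable ts p53-A138V + BP100-Luc; 1000 cells/well, Opti-MEM/10% FBS; cpd 4 pt, 1:5; 24 h, 37 deg C, 5% CO2; detection reagent 10 min RT; luminescence.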
BRCA1 expr act = BRCA1 expression activation | actives 1.1% (n = 380,000) | AID 624202 | Potency, µM (series often up to 46.1 µM), inactives show at the top dose activation, actives largely listed as activators | MCF7-BRCA1-FFLuc reporter, luminescence, 48 h; response scale: scaled: vehicle 0%, 10 µM genistein 100%; note: potency is the fitted concentration of half-maximal effect; nearly all actives have a fitted effect of over 80% in size
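Reporter cells (MCF7, BRCA1 promoter-firefly luciferase) received library compounds across a concentration series for 48 h. End-point luminescence was measured and concentration-effect curves derived after normalization.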
Apoferritin bind = binds horse apoferritin like a general anesthetic; Potency, µM (titrated, usually from 77.5 µM), inactives show top-dose activity change, negative = displacement, hits mostly inhibitors; apoferritin/1-aminoanthracene competitive binding, fluorescence; AID 485281; actives 0.074% (n = 350,000); note: potency is the fitted concentration of half-maximal effect; % is set by controls: 0 for no effect and ±100 for the full control effect; nearly all actives have a fitted effect of over 20% in size
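Horse-spleen apoferritin (10 uM) was mixed with 50% saturated 1-aminoanthracene in PBS, exposed to compounds for 10 min at room temperature, and read for fluorescence (ex 380 nm, em 535 nm). Competitive displacement was fitted with a four-parameter Hill equation.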
The depositor's hits bear a star. Calls come from the whole dose curve; as a rule, active = well fitted curve in the direction sought with a large enough effect; inconclusive = small, poorly fitted or top-dose-only effect, or another doubt; inactive = no such curve, though single readings can be large; an effect the other way counts as inactive or inconclusive.

O=C(NCCc1ccccc1)C(=O)NCC1CCCO1 (stereo unspecified) was read as miR-21 FLuc -24%, p53 reactivation 22%, BRCA1 expr act 13µM* and Apoferritin bind -11%.
For Oc1ccc(Cl)cc1CNCC1CCCO1 (stereo unspecified) the results were miR-21 FLuc -8%, p53 reactivation 5%, BRCA1 expr act -1% and Apoferritin bind -15%.
`Cc1ccc(NC(=O)C(=O)NCC2CCCO2)cc1` (stereo unspecified) gave miR-21 FLuc -49%, p53 reactivation 5%, BRCA1 expr act 10µM* and Apoferritin bind -2%.
Cc1ccc(C(=O)NC(=S)NCC2CCCO2)cc1 (stereo unspecified) was read as miR-21 FLuc -56%, p53 reactivation 26%, BRCA1 expr act 10µM* and Apoferritin bind -15%.
Clc1ccc(-c2ccc(CNCC3CCCO3)o2)cc1 (stereo unspecified) was read as miR-21 FLuc -54%, p53 reactivation 5%, BRCA1 expr act 10µM* and Apoferritin bind -3%.
For CC1CCCCC1NC(=O)COC(=O)c1ccc2c(=O)n3c(nc2c1)CCC3 (stereo unspecified) the results were p53 reactivation 29% and BRCA1 expr act -15%.
Screening CCCCn1c(N)c(N(CC)C(=O)c2cc(CC)c(C)s2)c(=O)[nH]c1=O returned p53 reactivation -3% and BRCA1 expr act -5%.
CC(=O)c1cccc(NC(=O)c2cc(=O)[nH]c3ccc(S(=O)(=O)N4CCOCC4)cc23)c1 was read as p53 reactivation -9% and BRCA1 expr act 0%.
`O=C(NCC1CCCO1)c1cc(-c2ccccc2F)no1` (stereo unspecified) gave miR-21 FLuc -79%, p53 reactivation inconclusive, BRCA1 expr act 13µM* and Apoferritin bind -7%.
O=C(NCC1CCCO1)Nc1cc(Cl)cc(Cl)c1 (stereo unspecified) was read as miR-21 FLuc -28%, p53 reactivation 2%, BRCA1 expr act 3% and Apoferritin bind -18%.
For COCCCNC(=S)NC(=O)c1ccc(C)cc1 the results were miR-21 FLuc -45%, p53 reactivation inconclusive, BRCA1 expr act 6.3µM* and Apoferritin bind -6%.
Screening O=C(NCC1CCCO1)Nc1ccc(Cl)cc1 (stereo unspecified) returned miR-21 FLuc -26%, BRCA1 expr act 10µM* and Apoferritin bind -3%.
Screening CN(C)c1ccc(/C=C/c2ccc3cc(F)ccc3n2)cc1 returned BRCA1 expr act 59%.
For COc1ccc(NC(=O)C2=C(C)Nc3ncnn3C2c2ccc(O)cc2)cc1 (stereo unspecified) the results were miR-21 FLuc 0%, BRCA1 expr act 14% and Apoferritin bind -5%.
`COc1cccc(CNS(=O)(=O)c2c(C(=O)N3CCCC3)c(C)n(C)c2C)c1` gave miR-21 FLuc -4%, p53 reactivation -2%, BRCA1 expr act -1% and Apoferritin bind -4%.
For O=C1NC(=O)N2CCSC2(Cc2ccccc2)N1 (stereo unspecified) the results were BRCA1 expr act -17%.
COc1cc(C)nc(N2CCCC(C(=O)NC3CCC(C)CC3)C2)n1 (stereo unspecified) was read as miR-21 FLuc -28%, p53 reactivation inconclusive, BRCA1 expr act 3.5µM* and Apoferritin bind -6%.
`CCC(C)NC(=O)C1CCCN(c2nc(C)cc(OC)n2)C1` (stereo unspecified) gave miR-21 FLuc -3%, p53 reactivation 1%, BRCA1 expr act -22% and Apoferritin bind -4%.
Screening Cc1ccc2oc(C(=O)Nc3c(C(=O)Nc4ccccc4)oc4ccccc34)cc(=O)c2c1 returned miR-21 FLuc -3% and Apoferritin bind 6%.
For CCOc1ccc(N=C2NC(=O)S/C2=C\c2ccc(N(C)C)cc2)cc1 the results were miR-21 FLuc -55%, p53 reactivation inconclusive, BRCA1 expr act 3.2µM* and Apoferritin bind -7%.

Sorted by count of non-hydrogen atoms (descending): part of the list above.
COc1cc(C)nc(N2CCCC(C(=O)NC3CCC(C)CC3)C2)n1 (stereo unspecified) was read as miR-21 FLuc -28%, p53 reactivation inconclusive, BRCA1 expr act 3.5µM* and Apoferritin bind -6%.
Screening CN(C)c1ccc(/C=C/c2ccc3cc(F)ccc3n2)cc1 returned BRCA1 expr act 59%.
For O=C1NC(=O)N2CCSC2(Cc2ccccc2)N1 (stereo unspecified) the results were BRCA1 expr act -17%.
Screening O=C(NCC1CCCO1)Nc1ccc(Cl)cc1 (stereo unspecified) returned miR-21 FLuc -26%, BRCA1 expr act 10µM* and Apoferritin bind -3%.

Carrying on:
Screening CC(=O)N1N=C(c2ccc(C)cc2)OC1c1ccc(C(C)C)cc1 (stereo unspecified) returned miR-21 FLuc -61%, p53 reactivation inconclusive, BRCA1 expr act 7.9µM* and Apoferritin bind -20%.
`CC1(C(=O)NCc2ccccc2)CCC(=O)N1C1CC1` (stereo unspecified) gave BRCA1 expr act 20%.
C/C(=N\OC(=O)c1ccc(Cl)cc1)c1sc(-c2ccccc2)nc1C was read as miR-21 FLuc -30%, p53 reactivation inconclusive, BRCA1 expr act 4µM* and Apoferritin bind -7%.
`C/C(=N\OC(=O)c1ccc(F)cc1)c1sc(-c2ccccc2)nc1C` gave miR-21 FLuc -27%, p53 reactivation inconclusive, BRCA1 expr act 2.8µM* and Apoferritin bind -11%.
COc1ccc(NC(=O)CSc2nc(=O)n(CCN3CCOCC3)c3c2CCCC3)c(OC)c1 was read as p53 reactivation -9% and BRCA1 expr act -12%.
CCC(=O)N1CCc2cc(S(=O)(=O)NCCC(=O)Nc3ccc(N(CC)CC)cc3C)ccc21 was read as miR-21 FLuc 4% and Apoferritin bind inconclusive.
O=C(CNC(=O)c1cccs1)c1ccc(Br)cc1 was read as miR-21 FLuc -68%, p53 reactivation inconclusive, BRCA1 expr act 5.6µM* and Apoferritin bind -3%.
Screening O=C(CNC(=O)c1cccs1)OCC(=O)c1ccc2ccccc2c1 returned miR-21 FLuc -3%, p53 reactivation 0%, BRCA1 expr act 8% and Apoferritin bind 14µM*.
Screening S=c1[nH]cc2cnccn12 returned BRCA1 expr act -2%.
`O=C(CN1C(=O)CNC1=O)Nc1cc(Cl)cc(Cl)c1` gave p53 reactivation -4% and BRCA1 expr act -17%.
For CCn1nc(-c2ccccc2C)nc2c(=O)n(C)c(=O)nc1-2 the results were BRCA1 expr act -78%.
COC(=O)c1ccc(OCC(O)Cn2nnc3ccccc32)cc1 (stereo unspecified) was read as miR-21 FLuc -54%, p53 reactivation 18%, BRCA1 expr act 11µM* and Apoferritin bind -16%.
For Cc1cc(NC(=O)c2cnc3c(-c4ccccc4)c(C)nn3c2C)ccc1Br the results were miR-21 FLuc -2% and Apoferritin bind -5%.
Screening CC(C)(C)c1ccc(C(=O)C[n+]2cc(Br)cc(Br)c2)cc1 returned BRCA1 expr act 0%.
For Cc1cc(/C=C2\NC(=S)N(C)C2=O)ccc1N1CCCC1 the results were miR-21 FLuc -49%, p53 reactivation 10%, BRCA1 expr act 5µM* and Apoferritin bind -9%.
For COc1ccc2c(c1)S/C(=C\C(=O)c1ccncc1)N2C the results were miR-21 FLuc -51%, p53 reactivation 22%, BRCA1 expr act 4.5µM* and Apoferritin bind 32%.
For CSc1ccc(/C=N/NC(=O)c2cccs2)cc1 the results were miR-21 FLuc -68%, p53 reactivation inconclusive, BRCA1 expr act inconclusive and Apoferritin bind 8%.
